Assay results as given in US9150568B2, “Compositions and methods for modulating FXR” (NOVARTIS AG, priority 2010, dated 2015).

Protein sequences, listed by entry. Tags and fused reporters are not part of them. Residues count along the entry.
UniProt Q96RI1, 193-472 isoform 2 limits assumed: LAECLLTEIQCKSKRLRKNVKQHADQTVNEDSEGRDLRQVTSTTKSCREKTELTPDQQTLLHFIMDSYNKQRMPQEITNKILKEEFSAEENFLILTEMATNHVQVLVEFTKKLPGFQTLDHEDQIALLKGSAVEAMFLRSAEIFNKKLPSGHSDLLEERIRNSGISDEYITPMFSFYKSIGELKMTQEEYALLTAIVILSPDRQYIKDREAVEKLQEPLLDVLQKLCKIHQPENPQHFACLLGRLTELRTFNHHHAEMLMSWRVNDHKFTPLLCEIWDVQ

These compounds were tested against human Farnesoid X Receptor (FXR) ligand binding domain (GST-FXR LBD) (Homo sapiens, UniProt Q96RI1) (assay: Human GST-FXR LBD co-activator interaction assay (HTRF)). Settings: read-out: FXR Co-activator interaction assay (EC50); GST-FXR LBD / biotin-SRC-1 peptide FRET; response relative to GW4064.
Format: biochemical

SMILES | EC50 [nM]
Cc1cc(C(=O)O)nc(N2C3CCC2CC(OCc2c(-c4ccccc4C(F)(F)F)noc2C2CC2)C3)n1 (stereo not shown) | 9
O=C(O)c1cnc(N2C3CCC2CC(OCc2c(-c4ccccc4OC(F)F)noc2C2CC2)C3)cc1Cl (stereo not shown) | 160
Cc1cc(C(=O)O)nc(N2C3CCC2CC(OCc2c(-c4ccccc4C(F)(F)F)noc2C2CC2)C3)c1 (stereo not shown) | 32
O=C(O)c1ccc(N2C3CCC2CC(OCc2c(-c4ccccc4OC(F)F)noc2C2CC2)C3)nc1 (stereo not shown) | 4
